{
  "sequences": {"note": "Sequences of proteins named here, by UniProt entry; tags and fusion partners are left off. Residues count along the entry.", "UniProt P19099, 25-503 limits assumed": "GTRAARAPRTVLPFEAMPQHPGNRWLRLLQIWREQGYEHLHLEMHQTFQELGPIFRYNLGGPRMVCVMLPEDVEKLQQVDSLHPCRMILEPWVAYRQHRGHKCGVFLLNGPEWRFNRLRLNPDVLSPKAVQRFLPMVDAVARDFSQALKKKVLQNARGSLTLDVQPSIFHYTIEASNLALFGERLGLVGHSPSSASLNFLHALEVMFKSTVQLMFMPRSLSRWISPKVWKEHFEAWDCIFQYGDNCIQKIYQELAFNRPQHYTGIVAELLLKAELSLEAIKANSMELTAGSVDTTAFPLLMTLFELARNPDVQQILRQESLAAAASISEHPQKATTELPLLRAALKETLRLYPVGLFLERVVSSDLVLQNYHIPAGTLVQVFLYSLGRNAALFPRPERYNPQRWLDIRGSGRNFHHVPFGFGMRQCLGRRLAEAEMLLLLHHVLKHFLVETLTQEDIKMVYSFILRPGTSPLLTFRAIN"},
  "source": "patent US12358893B2",
  "about": "“Metalloenzyme inhibitor compounds” (Corxel Pharmaceuticals Hong Kong Limited, priority 2019, dated 2025)",
  "key": {"[1]": {"target": "recombinant human CYP11B2 (Homo sapiens, UniProt P19099)", "test": "CYP11B2 enzyme assay with enzyme enriched microsomes, aldosterone measured by LC-MS", "details": "read-out: hCYP11B2 IC50; microsomes from V79-4 cells; 11-deoxycorticosterone at Km", "procedure": "(§1) V79-4 cells expressing recombinant andrenodoxin and andrenodoxin reductase with either recombinant human CYP11B2 or CYP11B1 were prepared according to methods previously described (LaSala et al 2009 Anal Bioch 394:56-61). An enzyme enriched microsomal fraction was prepared from cellular lysates and subsequently used as the enzyme source for determining inhibitor IC50s. The substrate Km values were experimentally determined for 11-deoxycorticosterone (CYP11B2 substrate) and 11-deoxycortisol (CYP11B1 substrate). Enzyme assays for inhibitor screening employed CYP11B2 and CYP11B1 enzyme enriched microsomes and were run at the Km of the respective substrates. Products of the enzyme reactions, aldosterone for CYP11B2 or cortisol for CYP11B1, were measured by LC-MS. Assays were run under conditions of less than 20% substrate turnover. Inhibitor IC50s were generated by determining the product formation in the absence or presence of inhibitor at various concentrations. In the absence of the test compound, the product formed (Pt) in each data set was defined as 100% activity. In the absence of enzyme, the product formed (Pb) in each data set was defined as 0% activity. The percent activity in the presence of each inhibitor was calculated according to the following equation: % activity=(P−Pb)/(Pt−Pb), where P=the product formed in the presence of the inhibitor. […]"}, "[2]": {"target": "recombinant human CYP11B1 (Homo sapiens, UniProt P15538)", "test": "CYP11B1 enzyme assay with enzyme enriched microsomes, cortisol measured by LC-MS", "details": "read-out: hCYP11B1 IC50; microsomes from V79-4 cells; 11-deoxycortisol at Km", "procedure": "as §1"}},
  "data": [
    {"smiles": "N#Cc1ccc2nc(-n3cnc4cnccc43)n(C3CC3)c2n1", "values": [
      {"measurement": "IC50", "setting": "[1]", "value": "0.1 to 1", "unit": "µM"},
      {"measurement": "IC50", "setting": "[2]", "value": "> 10", "unit": "µM"}
    ]},
    {"smiles": "N#Cc1ccc2nc(-n3cnc4ccncc43)n(C3CC3)c2n1", "values": [
      {"measurement": "IC50", "setting": "[1]", "value": "0.001 to 0.1", "unit": "µM"},
      {"measurement": "IC50", "setting": "[2]", "value": "1 to 10", "unit": "µM"}
    ]}
  ]
}
